Results as given in ChEMBL document CHEMBL2331380, “Evaluation of potential Myt1 kinase inhibitors by TR-FRET based binding assay” (Eur J Med Chem, 2013).

Organism: Homo sapiens
Test: Selectivity ratio of IC50 for Myt1 kinase (unknown origin) to IC50 for Wee1 (unknown origin)

**Q.** `CCN(CC)CCOc1ccc(Nc2ncc3cc(-c4c(Cl)cccc4Cl)c(=O)n(C)c3n2)cc1` was tested. Which Ratio IC50 did it give?
**A.** Its Ratio IC50 is 3.
